Source: patent US20150258108A1 (priority 2014, published 2015)
“And” between values parts separate entries of the source, which are not always exact repeats. Equal entries are not always repeated. Where two headings read alike, the source gives them in different places.

By UniProt entry, the sequences of proteins in these tests, tags left out.
UniProt P41145, whole entry: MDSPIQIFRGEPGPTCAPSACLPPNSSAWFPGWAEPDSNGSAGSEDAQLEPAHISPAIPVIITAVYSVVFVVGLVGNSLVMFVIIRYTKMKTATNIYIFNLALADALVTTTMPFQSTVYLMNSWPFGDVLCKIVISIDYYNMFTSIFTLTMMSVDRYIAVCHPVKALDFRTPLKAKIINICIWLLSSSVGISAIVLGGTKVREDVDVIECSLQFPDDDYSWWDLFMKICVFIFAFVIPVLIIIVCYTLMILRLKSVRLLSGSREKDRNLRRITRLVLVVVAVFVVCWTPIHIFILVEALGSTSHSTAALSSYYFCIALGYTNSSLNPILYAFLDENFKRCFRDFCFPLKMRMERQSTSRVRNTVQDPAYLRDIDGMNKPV

Target: OPRK (Homo sapiens, UniProt P41145)
Assay: [35S]GTPγS binding assay, CHO-K1 membranes
Assay type: biochemical

Structure (SMILES): COCC[C@H]1C[C@H]2CN3CCc4c([nH]c5ccccc45)[C@](C(=O)OC)(C2)[C@H]13
- Ke: 2.9 ± 0.7 µM and 4.3 ± 1.9 µM
- e-coupling (OPRK, activation, pKi-pEC50): 0.94 ~
- Ke (OPRK, against U69,593): 4.5 ± 1.4 µM
- Ke (OPRK, against agonist Dynorphin A): 2.8 ± 0.6 µM
- Ke (OPRK, against agonist U69,593): 4.5 ± 1.4 µM
- Ke (OPRK, inhibitory component, agonist not named in the row): 4.556 µM
- e-coupling (OPRK, inhibitory component, pKi-pKe): 0.39
